# Data reported in PMC12445440, “A Pyrido‐Quinoxaline Derivative That Downregulates Reticulon 3 Protein Exhibits Potent Antiviral Activity Against Zika Virus” (Journal of Medical Virology, 2025).
# Tested on: ZIKV^Br
# Assay: Virus yield reduction assay, ZIKV^Br on Huh-7 cells
# Assay type: cell-based, Zika virus
# Conditions: viral yield reduction
structure (smiles),measurement,value
"NC(=O)c1ncn([C@@H]2O[C@H](CO)[C@@H](O)[C@H]2O)n1 [RBV, 1‐(b‐D‐ribofuranosyl)‐1H‐1,2,4‐triazole‐3‐carboxamide, reference compound]",Activity against ZIKV^Br at nontoxic concentrations,did not seem to be active
